Data: patent US4276304A, “Novel benzylalcohol derivative and process for preparing the same” (priority 1979, dated 1981)

Test system: blood platelets
Experiment: Preventive effect upon the aggregation of blood platelets (collagen-induced, platelet-rich plasma)
Type: cell-based, male Sprague-Dawley rats
Settings: for Inhibition (%) against platelet aggregation, A* (test compound group): test compound 100 μg/ml, collagen, rat PRP; for Platelet aggregation inhibiting activity: 100 μg/ml, graded against acetylsalicylic acid 100 μg/ml

Q: “α-[(α,α-dimethyl-3,4-dimethoxyphenethylamino)methyl]-2-hydroxybenzylalcohol 1/2 oxalate” was tested. Which “Inhibition (%) against platelet aggregation, A* (test compound group)” value (from here on “Inhibition (%)”) did it give?
A: 67%

Q: For “α-[(α,α-dimethyl-3,4-methylenedioxyphenethylamino)methyl]-2-hydroxybenzylalcohol 1/2 oxalate”, which “Platelet aggregation inhibiting activity” value is on record?
A: - (less than 10% inhibition of platelet aggregation)

Q: And the “Inhibition (%)” value?
A: 2%

Q: Which “Platelet aggregation inhibiting activity” value does the source give for “α-[(α,α-dimethyl-3,4-methylenedioxyphenethylamino)methyl]-2-methoxybenzylalcohol 1/2 succinate” here?
A: - (less than 10% inhibition of platelet aggregation)

Q: And the “Inhibition (%)” value?
A: 6%
